Target: CB1 (Mus musculus, UniProt P47746)
Assay: In vivo blocking study in MCAO mice
Settings: SR141716A intravenous 30 minutes before IR780-loaded BA NPs, 24 hours, FIG. 3E

By UniProt entry, the sequences of proteins in these tests, tags left out.
UniProt P47746, whole entry: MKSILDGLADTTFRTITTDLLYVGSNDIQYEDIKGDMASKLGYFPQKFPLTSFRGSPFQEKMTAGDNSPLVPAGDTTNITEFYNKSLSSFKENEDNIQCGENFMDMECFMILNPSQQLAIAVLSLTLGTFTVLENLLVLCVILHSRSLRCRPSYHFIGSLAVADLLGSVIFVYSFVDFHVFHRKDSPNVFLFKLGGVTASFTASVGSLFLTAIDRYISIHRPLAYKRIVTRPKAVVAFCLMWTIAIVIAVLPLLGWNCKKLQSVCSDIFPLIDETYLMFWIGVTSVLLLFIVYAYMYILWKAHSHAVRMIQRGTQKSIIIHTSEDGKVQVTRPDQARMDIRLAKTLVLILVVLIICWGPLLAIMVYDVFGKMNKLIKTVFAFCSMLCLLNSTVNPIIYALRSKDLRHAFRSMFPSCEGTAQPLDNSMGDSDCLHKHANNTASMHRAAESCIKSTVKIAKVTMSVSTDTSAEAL

## Cc1c(C(=O)NN2CCCCC2)nn(-c2ccc(Cl)cc2Cl)c1-c1ccc(Cl)cc1 [SR141716A]
  reduction of uptake of BA NPs in the brain: 34%
